Test results as given in patent publication US8637553B2, “Fluoro substituted omega-carboxyaryl diphenyl urea for the treatment and prevention of diseases and conditions” (Bayer Healthcare LLC, priority 2003, dated 2014).

Chains of the proteins cited; added tags and fusions are not shown. Residues count along the entry.
UniProt P05622, 32-1098: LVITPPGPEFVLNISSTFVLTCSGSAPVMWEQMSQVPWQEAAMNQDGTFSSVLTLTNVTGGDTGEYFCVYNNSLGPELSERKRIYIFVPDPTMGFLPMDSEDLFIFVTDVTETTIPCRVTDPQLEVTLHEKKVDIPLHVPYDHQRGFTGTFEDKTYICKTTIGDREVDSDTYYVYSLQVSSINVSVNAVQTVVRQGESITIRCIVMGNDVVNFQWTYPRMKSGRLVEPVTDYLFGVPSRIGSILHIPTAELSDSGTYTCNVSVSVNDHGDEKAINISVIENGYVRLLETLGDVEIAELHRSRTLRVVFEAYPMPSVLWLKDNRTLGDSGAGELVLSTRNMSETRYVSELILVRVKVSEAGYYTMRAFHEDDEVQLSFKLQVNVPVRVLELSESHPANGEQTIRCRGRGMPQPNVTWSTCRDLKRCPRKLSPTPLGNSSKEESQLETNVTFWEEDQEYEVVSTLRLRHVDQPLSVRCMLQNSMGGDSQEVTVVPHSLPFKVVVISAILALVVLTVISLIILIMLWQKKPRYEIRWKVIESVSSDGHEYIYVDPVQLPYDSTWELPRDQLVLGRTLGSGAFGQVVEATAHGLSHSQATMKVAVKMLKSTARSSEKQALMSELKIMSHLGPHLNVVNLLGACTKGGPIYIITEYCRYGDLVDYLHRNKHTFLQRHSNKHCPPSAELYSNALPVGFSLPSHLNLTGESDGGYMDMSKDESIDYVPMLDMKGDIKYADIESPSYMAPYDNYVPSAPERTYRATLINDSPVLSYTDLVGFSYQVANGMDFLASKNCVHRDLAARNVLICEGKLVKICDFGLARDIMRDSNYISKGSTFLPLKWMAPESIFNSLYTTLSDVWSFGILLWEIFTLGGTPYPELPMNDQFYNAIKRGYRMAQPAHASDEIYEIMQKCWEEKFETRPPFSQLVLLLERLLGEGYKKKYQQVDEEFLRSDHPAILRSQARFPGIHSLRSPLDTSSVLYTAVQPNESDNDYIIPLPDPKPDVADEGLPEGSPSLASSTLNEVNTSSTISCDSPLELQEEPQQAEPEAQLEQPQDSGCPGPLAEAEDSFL

Biological target: mouse PDGFR (Mus musculus, UniProt P05622)
Assay: biochemical

CNC(=O)c1cc(Oc2ccc(NC(=O)Nc3ccc(Cl)c(C(F)(F)F)c3)c(F)c2)ccn1 [Example 1, 4{4-[3-(4-chloro-3-trifluoromethylphenyl)-ureido]-3-fluorophenoxy}-pyridine-2-carboxylic acid methylamide]
IC50: 83 nM
